Screens as filed in PubChem BioAssay.
An excerpt weighted towards active compounds, which were near 1.3% of everything screened.
MLL AF4-AF9 inh – blocks AF4 peptide binding to human AF9. P42568. AlphaScreen, biotin-AF4 peptide binding to FLAG-AF9. inhibition, % at 10 µM. 350,000 compounds, 0.47% hits;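 active means every replicate reaching a set inhibition limit, whatever the replicate mean, cut at about 25% in these data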;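 further: 0% = plate neutral control median and 100% = total signal loss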
S100A4 MyoIIA – S100A4-myosin IIA interaction inhibition | P26447 | S100A4/TAMRA-MyoIIA peptide fluorescence polarization | inhibition, % at 10.7 µM | 360,000 compounds, 0.14% hits | AID 652163;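 active means mean inhibition of at least 70% across replicates, with every replicate also reaching that level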
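Material: human S100A4 monomer with TAMRA-labelled myosin IIA peptide; buffer or medium: HEPES pH 7.2 with CaCl2, KCl, NaCl, DTT, Triton; compound dosing: one concentration per compound; schedule: 5 min incubation before reading; benchmarks: neutral control DMSO, positive control TFP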
ERAP1 HTS inh – ERAP1 (human) enzyme inhibition; Q9NZ08; recombinant ERAP1, Leu-AMC fluorescence, 60 min; inhibition, % at 10.7 µM; 340,000 compounds, 0.15% hits;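 active means mean replicate inhibition of at least 30%, or all replicates individually reaching that 30% level; inactive means mean below 30% and not every replicate reaching it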;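 further: 0% = neutral control wells and 100% = L-leucinethiol positive control wells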
E-sel inducer – E-selectin induction on HUVECs | AID 686992 | 260,000 compounds, 0.37% hits | activation, % at 7.58 µM | P16581 | HUVEC E-selectin immunofluorescence imaging; normalized: neutral wells 0, TNF-alpha wells 100;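 active means mean E-selectin-positive cell signal at least 10% of the positive control, reached in at least 60% of replicates, without over 20% cell loss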
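Test system – human umbilical vein endothelial cells (HUVEC), E-selectin induction · Input – 3,000 HUVEC seeded per well · Buffer or medium – EGM-2, gelatin · Compound dosing – single-point compound dose · Detection – immunofluorescence imaging · Measure – percent E-selectin-positive cells · Controls – TNF-alpha high, DMSO low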
ARNT-TACC3 inh – disruptors of human ARNT/TACC3 interaction. 390,000 compounds, 0.66% hits. inhibition, % at 9.99 µM. Q9Y6A5. AlphaScreen His-ARNT PAS-B/GST-TACC3 binding, luminescence; TACC3 fragment carries E629A point mutation. AID 623870;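 active means mean inhibition of replicates at least 50% and at least half of replicates each reaching 50%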;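 further: 0% = complete ARNT plus TACC3 wells and 100% = ARNT alone without TACC3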
Yeast UUG start-1 – alters start codon recognition fidelity in yeast. S. cerevisiae UUG-firefly luciferase reporter, luminescence/redox ratio. 350,000 tested, 0.13% active. activity score, % at 18.7 µM. AID 602363;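 active means replicate mean at a twofold rise or more, about +100% in these data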;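 further: firefly luciferase made from a UUG start codon reports start codon fidelity; reporter light over untreated wells divided by growth signal over untreated wells; some hits fall short of that in this replicate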
Yeast UUG start-2 – yeast start codon fidelity modulation; shares compounds with Yeast UUG start-1; S. cerevisiae UUG-start firefly luciferase, luminescence, 4 h; 100% means double the DMSO signal; activation, % at 38 µM; 540 tested, under 10 active; AID 652061;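 active means signal increase whose fitted curve reaches an absolute level of 40 at a concentration under 10 µM; inactive means activity opposite to the expected increase, or the rest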
* = called active by the depositor; i = inactive; nt = not tested or not shown; ! = not confirmed by another sample.

[1] C[C@@H]1CN([C@@H](C)CO)C(=O)c2cc(C#CCC3CCCC3)cnc2O[C@@H]1CN(C)C(=O)CN(C)C
[2] Cc1ccc(-c2cnc3c(c2)C(=O)N([C@@H](C)CO)C[C@@H](C)[C@H](CN(C)C(=O)CN(C)C)O3)cc1
[3] CN(C)C(=O)c1ccc(-c2cccc(-c3nc(C(=O)NC4CCCC4)cc4c3[C@H](CCO)N([S@@](=O)C(C)(C)C)C4)c2)cc1
[4] Cc1cc(O)ccc1C1(c2ccc(O)cc2C)OC(=O)c2ccccc21
[5] O=C1OC(c2ccccc2)(c2ccc(O)cc2)c2ccccc21 (stereo not drawn)
[6] C[C@@H]1CCCCO[C@H](CN(C)Cc2ccncc2)[C@H](C)CN([C@@H](C)CO)C(=O)c2cc(NS(C)(=O)=O)ccc2O1

Compound	1	2	3	4	5	6
MLL AF4-AF9 inh	6	-1	1	nt	-2	-3
S100A4 MyoIIA	-8	-10	-15	nt	-2	-1
ERAP1 HTS inh	-3	nt	0	nt	-4	-1
E-sel inducer	1	0	0	nt	0	0
ARNT-TACC3 inh	-2	-5	9	4	-1	5
Yeast UUG start-1	125*	163*	nt	444*	-10	-4
Yeast UUG start-2	i	i	nt	6	nt	nt

An excerpt from above in order of molar mass, highest first:
[3] CN(C)C(=O)c1ccc(-c2cccc(-c3nc(C(=O)NC4CCCC4)cc4c3[C@H](CCO)N([S@@](=O)C(C)(C)C)C4)c2)cc1
[6] C[C@@H]1CCCCO[C@H](CN(C)Cc2ccncc2)[C@H](C)CN([C@@H](C)CO)C(=O)c2cc(NS(C)(=O)=O)ccc2O1
[2] Cc1ccc(-c2cnc3c(c2)C(=O)N([C@@H](C)CO)C[C@@H](C)[C@H](CN(C)C(=O)CN(C)C)O3)cc1
[5] O=C1OC(c2ccccc2)(c2ccc(O)cc2)c2ccccc21 (stereo not drawn)

Compound	3	6	2	5
MLL AF4-AF9 inh	1	-3	-1	-2
S100A4 MyoIIA	-15	-1	-10	-2
ERAP1 HTS inh	0	-1	nt	-4
E-sel inducer	0	0	0	0
ARNT-TACC3 inh	9	5	-5	-1
Yeast UUG start-1	nt	-4	163*	-10
Yeast UUG start-2	nt	nt	i	nt

Further entries:
[7] CCc1ccc(NC(=O)NCCN2CCCCC2)cc1
[8] C[C@H](CO)N1C[C@H](C)[C@H](CN(C)C(=O)CN(C)C)Oc2cc(C#CC(C)(C)O)ccc2S1(=O)=O
[9] O=C(Nc1ccccc1)/C(=C/c1ccccc1)c1ccccc1
[10] Cc1ccccc1NC(=O)/C(=C/c1ccccc1)c1ccccc1
[11] O=C(Nc1ccccc1)NC1(c2cn(CC(=O)N3CCN(c4ccccc4)CC3)nn2)CCCCC1
[12] O=C(CN1C(=O)NC2(CCCCCC2)C1=O)N1CCN(c2ccccc2)CC1

Compound	7	8	9	10	11	12
MLL AF4-AF9 inh	6	-6	nt	nt	-5	1
S100A4 MyoIIA	-21	5	nt	-5	7	-20
ERAP1 HTS inh	1	0	nt	0	-2	5
E-sel inducer	nt	0	nt	nt	nt	-3
ARNT-TACC3 inh	2	-4	-5	6	34	0
Yeast UUG start-1	108*	8	-15	102*	124*	-13
Yeast UUG start-2	2	nt	nt	-1	i	nt

[13] CCOC(=O)C1CCN(Cc2cnc(Oc3ccc(C(C)(C)C)cc3)s2)CC1
[14] COCC(=O)Nc1ccc2c(c1)[C@@H]1C[C@@H](CC(=O)N3CCOCC3)O[C@H](CO)[C@@H]1O2
[15] O=C(c1cccnc1)N1C[C@@H]2[C@H](c3ccccc31)[C@@H](CO)N2C(=O)C1CC1
[16] O=C(c1cccnc1)N1C[C@@H]2[C@H](c3ccccc31)[C@@H](CO)N2C(=O)C1CCOCC1
[17] O=C(c1cccnc1)N1C[C@@H]2[C@H](c3ccccc31)[C@H](CO)N2C(=O)C1CC1
[18] COc1ccccc1C(=O)Nc1ccc2c(c1)C(=O)N(C)C[C@H](OC)[C@H](C)CN(CC1CC1)[C@H](C)CO2

Compound	13	14	15	16	17	18
MLL AF4-AF9 inh	nt	0	1	0	-2	1
S100A4 MyoIIA	nt	1	1	3	2	6
ERAP1 HTS inh	nt	1	-3	-2	0	0
E-sel inducer	-2	1	0	0	0	0
ARNT-TACC3 inh	-11	7	-2	4	-1	-1
Yeast UUG start-1	127*	nt	33	117*	115*	-3
Yeast UUG start-2	4	nt	nt	i	i	nt

[19] O=C(NNc1c(Cl)cc(Cl)cc1Cl)c1n[nH]c(=O)c2ccccc12
[20] CCN1CCN(Cc2ccc(NC(=O)c3ccc(C)c(NC(=O)N4CCNC4=O)c3)cc2C(F)(F)F)CC1
[21] CCN1CCN(Cc2ccc(NC(=O)c3ccc(C)c(NC(=O)c4nccn4C)c3)cc2C(F)(F)F)CC1
[22] COc1cc(C(=O)OCC(=O)c2cc(C)n(CC3CCCO3)c2C)cc(OC)c1C (stereo not drawn)
[23] CCNC(=O)C[C@H]1CC[C@H]2[C@H](COc3ccc(NC(=O)c4cscn4)cc3C(=O)N2C)O1
[24] O=C(C1CCC1)N1C[C@H]2[C@@H](c3ccccc31)[C@H](CO)N2C(=O)c1ccccc1F

Compound	19	20	21	22	23	24
MLL AF4-AF9 inh	2	4	4	5	-22	2
S100A4 MyoIIA	4	-1	0	-9	3	-4
ERAP1 HTS inh	-5	-11	nt	-4	-4	-2
E-sel inducer	nt	0	0	nt	0	0
ARNT-TACC3 inh	2	17	6	nt	4	-8
Yeast UUG start-1	209*	131*!	-9	107*	14	33
Yeast UUG start-2	-3	13	nt	6	nt	nt

[25] O=C(C1CCC1)N1C[C@H]2[C@@H](c3ccccc31)[C@H](CO)N2C(=O)c1ccccc1
[26] O=C(C1CCC1)N1C[C@@H]2[C@H](c3ccccc31)[C@H](CO)N2C(=O)c1ccccc1F
[27] O=C(C1CCC1)N1C[C@@H]2[C@H](c3ccccc31)[C@@H](CO)N2C(=O)c1ccccc1
[28] C[C@H](CO)N1C[C@H](C)[C@@H](CN(C)CC2CCCCC2)Oc2ccc(NS(=O)(=O)c3ccc(F)cc3)cc2CC1=O
[29] C[C@H](CO)N1C[C@H](C)[C@@H](CN(C)C(=O)Nc2ccc(C(F)(F)F)cc2)Oc2c(NS(=O)(=O)c3ccc(Cl)cc3)cccc2C1=O
[30] COc1ccc(CCNS(=O)(=O)c2ccccc2)cc1OC

Compound	25	26	27	28	29	30
MLL AF4-AF9 inh	-1	-1	0	1	-2	nt
S100A4 MyoIIA	0	3	-2	1	-14	nt
ERAP1 HTS inh	0	5	0	1	0	nt
E-sel inducer	0	0	0	0	0	nt
ARNT-TACC3 inh	1	-6	1	10	-4	-1
Yeast UUG start-1	101*	195*	10	7	-7	705*
Yeast UUG start-2	i	i	nt	nt	nt	-5

[31] COc1ccc(CCNS(=O)(=O)c2ccc(OC)c(OC)c2)cc1OC
[32] COc1ccc(CCNS(=O)(=O)c2ccc(Cl)cc2)cc1OC
[33] COc1cc(S(=O)(=O)N2CCOCC2)ccc1N
[34] COc1cc(S(=O)(=O)N2CCOCC2)ccc1F
[35] COc1ccc2c3c([nH]c2c1)[C@@H](CO)N(S(=O)(=O)c1cn(C)cn1)CC31CCN(CC2CCCCC2)CC1
[36] CCOC(=O)c1cnn(Cc2ccccc2)c1N

Compound	31	32	33	34	35	36
MLL AF4-AF9 inh	-3	-2	-1	nt	13	3
S100A4 MyoIIA	2	1	2	nt	0	-2
ERAP1 HTS inh	3	-1	-1	nt	-6	0
E-sel inducer	0	0	nt	nt	0	nt
ARNT-TACC3 inh	0	7	1	-9	nt	-1
Yeast UUG start-1	-20	-14	nt	196*	nt	nt
Yeast UUG start-2	nt	-7	nt	-1	nt	nt

[37] Cc1cnn(Cc2ccccc2)c1N
[38] CCCC(=O)Nc1ccccc1NC(=O)c1ccc(OC(C)=O)cc1
[39] CC(C)n1cc(C(=O)c2ccccc2O)cc(C#N)c1=O
[40] N#Cc1cc(C(=O)c2ccccc2O)cn(-c2nccs2)c1=O
[41] COc1ccc(C(C#N)N2CCC(c3ccccc3)=N2)cc1 (stereo not drawn)
[42] COc1ccc(S(=O)(=O)N2CC[C@@H]3[C@H]2c2cc(C#Cc4ccccc4OC)ccc2N[C@@H]3CO)cc1

Compound	37	38	39	40	41	42
MLL AF4-AF9 inh	nt	0	-4	nt	3	1
S100A4 MyoIIA	nt	-2	2	nt	-8	-7
ERAP1 HTS inh	nt	-6	-4	nt	1	1
E-sel inducer	nt	nt	nt	nt	1	0
ARNT-TACC3 inh	4	8	-9	3	-2	-15
Yeast UUG start-1	605*	444*	230*	nt	183*	-26
Yeast UUG start-2	-6	12	8	nt	-4	nt
